Bioassay records deposited in PubChem by ICCB-Longwood Screening Facility, Harvard Medical School.
HCMV NEC inh: inhibitors of HCMV UL50-UL53 interaction, biochemical, HTRF; HCMV UL50-UL53 nuclear egress complex (human cytomegalovirus); normalized percent inhibition; inhibition, % (concentration not given with the values); 190,000 tested, 0.15% active; in the data active = inhibition above about 27%, passing the limit was not always enough
GIV-Gai inh: inhibitors of GIV peptide binding to Galpha-i3, primary screen, biochemical, fluorescence polarization, FITC-GIV GBA peptide, rat Galphai3 | 90 min; stronger effect = lower value; scaled: aluminum fluoride 0%, vehicle 100% | AID 1224905, 2016 | 210,000 compounds, 0.42% hits | percent of control (FP), % (concentration not given with the values) | Guanine nucleotide-binding protein G(i) subunit alpha-3 (Rattus norvegicus), P08753;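 active = replicate mean at 85% of control or lower, very high polarization wells dropped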;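 note: wells of about 15 µL received 100 nL stock; the first replicate is given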
* = called active by the depositor. This is a sample that favours compounds with a hit; in the whole collection about 0.43% have one here.

Amino acid sequences for entries named in this document (tags omitted).
Guanine nucleotide-binding protein G(i) subunit alpha-3 (Rattus norvegicus), P08753, UniProt P08753, whole entry, looked up: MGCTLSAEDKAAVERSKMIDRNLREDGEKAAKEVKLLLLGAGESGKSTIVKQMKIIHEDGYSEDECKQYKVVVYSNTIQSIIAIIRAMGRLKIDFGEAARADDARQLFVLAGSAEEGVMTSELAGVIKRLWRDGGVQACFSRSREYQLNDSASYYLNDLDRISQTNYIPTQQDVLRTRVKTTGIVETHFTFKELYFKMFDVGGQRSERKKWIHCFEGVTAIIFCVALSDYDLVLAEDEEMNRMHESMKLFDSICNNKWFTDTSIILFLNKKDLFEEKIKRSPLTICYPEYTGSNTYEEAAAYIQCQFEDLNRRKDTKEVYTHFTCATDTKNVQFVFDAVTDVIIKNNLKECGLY

Results for CN1C(=O)c2cccc(NC(=O)CSc3ccc(F)cc3)c2C1=O ?
HCMV NEC inh: -35; GIV-Gai inh: 101

Results for CCNc1cccc2c1C(=O)N(C)C2=O ?
HCMV NEC inh: -68; GIV-Gai inh: 6.2*

Results for O=C(NC1CCCC1)c1cnc2sc3c(n2c1=O)CCCCCC3 ?
HCMV NEC inh: -22; GIV-Gai inh: 105

What do the screens show for `O=C(Cn1cc(/C=C2\C(=O)NC(=O)N(Cc3ccccc3)C2=O)c2ccccc21)NCc1ccco1`?
HCMV NEC inh: 0; GIV-Gai inh: -35*

What do the screens show for `C=CCN1C(=O)NC(=O)/C(=C/c2ccc(OCc3ccc(Cl)cc3)c(OC)c2)C1=O`?
HCMV NEC inh: -27; GIV-Gai inh: 109

Results for C=CCN1C(=O)NC(=O)/C(=C/c2ccc(OCc3ccccc3F)c(OCC)c2)C1=O ?
HCMV NEC inh: -13; GIV-Gai inh: 104

Results for CN1C(=O)/C(=C/c2cn(Cc3ccccc3)c3ccccc23)c2ccccc21 ?
GIV-Gai inh: 104

What do the screens show for `C=CCN1C(=O)NC(=O)/C(=C/c2cccc(OCc3ccccc3Cl)c2)C1=O`?
HCMV NEC inh: 73*; GIV-Gai inh: 114

What do the screens show for `C=CCN1C(=O)NC(=O)/C(=C/c2ccccc2OCc2ccc(Cl)cc2)C1=O`?
HCMV NEC inh: 82*; GIV-Gai inh: 117

How did CN1C(=O)/C(=C/c2cn(CC(=O)NCc3ccco3)c3ccccc23)C(=O)NC1=S do in these assays?
HCMV NEC inh: 5; GIV-Gai inh: 105

How did C=CCN1C(=O)NC(=O)/C(=C\c2cn(Cc3ccccc3)c3ccccc23)C1=O do in these assays?
GIV-Gai inh: 21*

Results for CCOC(=O)C1CCN(C(=O)c2cc(NC(=O)c3ccc(C)cc3)cnc2N2CCNCC2)CC1 ?
GIV-Gai inh: 107

What do the screens show for `O=C(NCCCN1CCCC1)C1CCN(c2cncnc2N2CCOCC2)CC1`?
GIV-Gai inh: 105

What do the screens show for `O=C(CCc1nc(CSc2nc3ccccc3s2)no1)Nc1cccc(Br)c1`?
GIV-Gai inh: 105

What do the screens show for `Cn1c(CNC(=O)c2cc3c(s2)CN(C2CC2)C3)nc2ccccc21`?
GIV-Gai inh: 105

How did O=S(=O)(c1cc(F)ccc1F)N1CCN(c2cc(-c3cccc(F)c3)ncn2)CC1 do in these assays?
HCMV NEC inh: -34; GIV-Gai inh: 103

What do the screens show for `CCCN1CC(CSC)C[C@@H]2c3cccc4[nH]cc(c34)C[C@H]21` (stereo partly drawn)?
HCMV NEC inh: 50*

Results for CC1=C(C(=O)Nc2ccc(C)c(Cl)c2)C2(CCN(Cc3ccccc3)CC2)OC1=O ?
HCMV NEC inh: 6; GIV-Gai inh: 107

How did CCOc1ccccc1NS(=O)(=O)c1ccc2c(c1)CC(C)N2C(=O)C1CCC1 (stereo not drawn) do in these assays?
GIV-Gai inh: 108

How did CCN(CC)Cc1c(O)ccc2cc(-c3nc4ccccc4s3)c(=O)oc12 do in these assays?
GIV-Gai inh: -18*

Results for CC1CCCN(Cc2c(O)ccc3cc(-c4nc5ccccc5s4)c(=O)oc23)C1 (stereo not drawn) ?
HCMV NEC inh: -82; GIV-Gai inh: -32*

Results for CCOc1cccc2cc(-c3nc4ccccc4s3)c(=O)oc12 ?
GIV-Gai inh: 143

What do the screens show for `O=c1oc2c(CN3CCCC3)c(O)ccc2cc1-c1ccccc1`?
GIV-Gai inh: 115

Results for CCN1CCCCCC1CO (stereo not drawn) ?
HCMV NEC inh: -10; GIV-Gai inh: 106

Results for O=C(O)C(Cc1ccccc1)N=Cc1c(O)c2ccccc2oc1=O (stereo not drawn) ?
HCMV NEC inh: -18; GIV-Gai inh: 99

Results for O=C(O)C(Cc1ccc(O)cc1)N=Cc1cccc2ccccc12 (stereo not drawn) ?
HCMV NEC inh: 95*

How did CCc1ccc(N(CC)C(=O)c2ccc3c(=O)n4c(nc3c2)CCCCC4)cc1 do in these assays?
HCMV NEC inh: 3; GIV-Gai inh: 101

Results for CN1CCc2c(sc(NC(=O)C3CC3)c2-c2nc3ccccc3s2)C1 ?
GIV-Gai inh: -3.2*

Results for CC(C)N1CCc2c(sc(NC(=O)C3CC3)c2-c2nc3ccccc3s2)C1 ?
GIV-Gai inh: -3.2*

How did CN1CCc2c(sc(NC(=O)CN3C(=O)c4ccccc4C3=O)c2-c2nc3ccccc3s2)C1 do in these assays?
GIV-Gai inh: 124

How did CC(=O)N1CCc2c(sc(NC(=O)CSc3ccc(C)cc3)c2-c2nc3ccccc3s2)C1 do in these assays?
GIV-Gai inh: 100

Results for COC(=O)c1c(C)[nH]c(C(=O)N2CCC(CC(=O)N3CCN(c4cccc(C)c4)C(C)C3)CC2)c1C (stereo not drawn) ?
HCMV NEC inh: -16; GIV-Gai inh: 105

Results for Oc1c(C(c2ccccc2Cl)N2CCC(O)CC2)sc2nc(-c3ccco3)nn12 (stereo not drawn) ?
GIV-Gai inh: 99

Results for C/C(=N\OCc1ccc(C#N)cc1)c1ccc2c(c1)OCCO2 ?
HCMV NEC inh: -20

What do the screens show for `N#CC1=C(N)Oc2n[nH]c(-c3ccc(Br)cc3)c2C1c1ccc(OC(=O)c2ccco2)cc1` (stereo not drawn)?
GIV-Gai inh: 110

How did CC1=NN(c2ccccc2)C(=O)/C1=C\c1ccc(N(C)C)cc1 do in these assays?
HCMV NEC inh: -21; GIV-Gai inh: 105

What do the screens show for `COc1ccc(/C=C2\C(=O)N(c3ccccc3)N=C2C)cc1`?
HCMV NEC inh: 43*; GIV-Gai inh: 109

How did CC1=NN(c2ccccc2)C(=O)/C1=C\c1ccc(Oc2ccc([N+](=O)[O-])cc2[N+](=O)[O-])cc1 do in these assays?
HCMV NEC inh: 54*; GIV-Gai inh: 97

Results for CN1C(=O)C(=Cc2ccc(Oc3ccc([N+](=O)[O-])cc3[N+](=O)[O-])cc2)C(=O)N(C)C1=O ?
HCMV NEC inh: -63; GIV-Gai inh: 93

What do the screens show for `O=C(CCCN1C(=O)c2ccccc2C1=O)Oc1ccccc1`?
HCMV NEC inh: -50

By substructure, the compounds so far containing a Cl atom (5)
What do the screens show for `C=CCN1C(=O)NC(=O)/C(=C/c2ccc(OCc3ccc(Cl)cc3)c(OC)c2)C1=O`?
HCMV NEC inh: -27; GIV-Gai inh: 109

What do the screens show for `C=CCN1C(=O)NC(=O)/C(=C/c2cccc(OCc3ccccc3Cl)c2)C1=O`?
HCMV NEC inh: 73*; GIV-Gai inh: 114

What do the screens show for `C=CCN1C(=O)NC(=O)/C(=C/c2ccccc2OCc2ccc(Cl)cc2)C1=O`?
HCMV NEC inh: 82*; GIV-Gai inh: 117

Results for CC1=C(C(=O)Nc2ccc(C)c(Cl)c2)C2(CCN(Cc3ccccc3)CC2)OC1=O ?
HCMV NEC inh: 6; GIV-Gai inh: 107

Results for Oc1c(C(c2ccccc2Cl)N2CCC(O)CC2)sc2nc(-c3ccco3)nn12 (stereo not drawn) ?
GIV-Gai inh: 99

Other entries follow:
What do the screens show for `CN1CCN(C(=O)c2cc3ccccc3o2)CC1`?
HCMV NEC inh: -17

Results for CN(CCO)c1nc(N)c2c(N)nc3c(c2c1C#N)CC(=O)N3C1CCCC1 ?
HCMV NEC inh: 101*

How did N#Cc1c(N2CCCC(C(=O)O)C2)nc(N)c2c(N)nc3c(c12)CC(=O)N3C1CCCC1 (stereo not drawn) do in these assays?
HCMV NEC inh: -18

Results for COc1ccc(C2CC(=O)C3=C(C2)Nc2ccccc2NC3c2cc3c(cc2Cl)OCO3)cc1OC (stereo not drawn) ?
GIV-Gai inh: 111

What do the screens show for `CCN1/C(=C\C=C2\C(=O)N(C)C(=S)N2C)Sc2ccccc21`?
GIV-Gai inh: 270

How did CCN1/C(=C\C=C2/C(=O)NC(=O)N(C)C2=O)Sc2ccccc21 do in these assays?
HCMV NEC inh: -44; GIV-Gai inh: -61*

Results for Nc1cnc2cccc3c2c1-c1ccccc1C3=O ?
HCMV NEC inh: -60; GIV-Gai inh: -74*

Results for Cc1nc2c3c(cccc3n1)C(=O)c1ccccc1-2 ?
HCMV NEC inh: -96; GIV-Gai inh: 91

What do the screens show for `Cn1cccc1/C=C1\CC/C(=C\c2cccn2C)C1=O`?
GIV-Gai inh: -75*

How did Cn1cccc1/C=C1\CCc2ccccc2C1=O do in these assays?
GIV-Gai inh: 144

How did O=C(NCCCN1CCCC1)c1noc2c1CCCCC2 do in these assays?
HCMV NEC inh: -36; GIV-Gai inh: 100
